# Apparent affinities of Ab-14 variants for a coronavirus HR2 peptide

Target peptide (SARS-CoV-2 spike, HR2 region): PDVDLGDISGINAS

Parent: Ab-14, a human scFv built as VH, three GGGGS repeats, VL. Only the CDRs of the light chain vary.
VH: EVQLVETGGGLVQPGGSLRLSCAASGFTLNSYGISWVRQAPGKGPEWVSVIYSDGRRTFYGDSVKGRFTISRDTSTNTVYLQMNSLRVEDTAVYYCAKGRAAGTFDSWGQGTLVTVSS
VL: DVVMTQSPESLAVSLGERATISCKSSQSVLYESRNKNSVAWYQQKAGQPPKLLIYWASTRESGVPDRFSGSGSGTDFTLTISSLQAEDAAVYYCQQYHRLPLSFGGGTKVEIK

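Phage display of a naive human antibody library on the peptide gave the parent. The library (AAYL50) carries one to three amino acid substitutions per variant, with no insertions or deletions. The assay is AlphaSeq: two haploid yeast populations carry antibody and antigen on their surface. Mating (16 h, 30 °C) was followed by selection of diploids and sequencing of their barcodes. Each replicate has its own calibration line, from reference interactions of the BCL2 family. The assay was run in three technical replicates.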

The whole VL of each variant is written out. Affinities are written as log10 Kd with Kd in nM; a lower number is a better binder. Where no diploid with the target was found in that replicate, the entry reads "nd": below detection, most likely a poor binder, though not proof of it. Background: pairings of library AAYL50 with three empty control strains gave a value in 18% of cases (median 4.19, 5th percentile 2.99). Values in that range, when seen in few replicates, are hard to tell from nonspecific mating. The control count says in how many pairings with the empty strains this scFv gave a signal, with their mean in brackets.

VL | replicates, log10 nM | control signals
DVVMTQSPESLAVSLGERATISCKSHQSVLYESRNKNSVQWYQQKAGQPPKLLIYWASTRESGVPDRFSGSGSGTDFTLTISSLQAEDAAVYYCQQYHLLPLSFGGGTKVEIK | nd 3.17 nd | 1 of 9 (3.63)
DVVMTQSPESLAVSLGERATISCKSSMSVQYESRNKNSVAWYQQKAGQPPKLLIYWASTRESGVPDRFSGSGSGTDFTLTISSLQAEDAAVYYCQQYHRLNLSFGGGTKVEIK | 0.84 0.99 0.88 | 0 of 9
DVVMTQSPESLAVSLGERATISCKSSQSCLYESRNKNSVAWYQQKAGQPPKLLIYWASTRGPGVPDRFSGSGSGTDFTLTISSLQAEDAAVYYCQQYHRLPLSFGGGTKVEIK | 1.62 1.70 1.75 | 4 of 9 (4.28)
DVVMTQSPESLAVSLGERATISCKSSPSVLYESRNKNHVKWYQQKAGQPPKLLIYWASTRESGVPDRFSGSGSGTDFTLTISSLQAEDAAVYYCQQYHRLPLSFGGGTKVEIK | nd nd nd | 3 of 9 (4.02)
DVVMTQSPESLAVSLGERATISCKSSQSVLYESVNKNYVAWYQQKAGQPPKLLIYWASTRESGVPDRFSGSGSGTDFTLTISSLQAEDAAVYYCQQYHWLPLSFGGGTKVEIK | nd nd 3.56 | 0 of 9
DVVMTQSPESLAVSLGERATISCKSSQSVLFESRNANSVRWYQQKAGQPPKLLIYWASTRESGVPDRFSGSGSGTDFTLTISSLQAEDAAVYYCQQYHRLPLSFGGGTKVEIK | nd nd nd | 0 of 9
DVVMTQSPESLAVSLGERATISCKSSQSVLYESRNKNSVQWYQQKAGQPPKLLIYWHLTRESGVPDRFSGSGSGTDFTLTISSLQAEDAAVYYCQQYHRLPLSFGGGTKVEIK | 3.85 2.77 nd | 2 of 9 (4.08)
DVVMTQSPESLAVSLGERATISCKSSQSVLYESRNKYSVAWYQQKAGQPPKLLIYWASTREWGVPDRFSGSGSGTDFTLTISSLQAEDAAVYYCQQYHRLPLGFGGGTKVEIK | 0.95 0.98 1.13 | 6 of 9 (4.43)
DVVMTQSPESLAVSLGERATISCKSSFSVLYESRNMNSVAWYQQKAGQPPKLLIYWASTREWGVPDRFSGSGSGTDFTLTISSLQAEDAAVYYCQQYHRLPLSFGGGTKVEIK | 0.98 1.07 1.06 | 5 of 9 (4.13)
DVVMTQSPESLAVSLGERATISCKSSQSVLYESRNKNSVAWYQQKAGQPPKLLIYWAATQLSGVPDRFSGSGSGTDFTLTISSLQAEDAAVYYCQQYHRLPLSFGGGTKVEIK | nd nd nd | 0 of 9
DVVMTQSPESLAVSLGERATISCKSSQSVLHESRNKNSVSWYQQKAGQPPKLLIYWASTRESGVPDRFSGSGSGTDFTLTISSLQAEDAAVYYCQQYHRLPLSFGGGTKVEIK | 3.10 2.94 3.61 | 3 of 9 (4.02)
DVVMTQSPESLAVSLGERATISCKSSYSVLKESRNKNSVAWYQQKAGQPPKLLIYCASTRESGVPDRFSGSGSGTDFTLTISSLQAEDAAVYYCQQYHRLPLSFGGGTKVEIK | nd nd 5.87 | 1 of 9 (4.82)
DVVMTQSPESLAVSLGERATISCKSSQSHLYESRNKNSVAWYQQKAGQPPKLLIYWASTRESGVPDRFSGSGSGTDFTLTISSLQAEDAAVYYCQQYHPLPTSFGGGTKVEIK | 3.39 nd nd | 0 of 9
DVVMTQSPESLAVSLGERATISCKSSQSVLFESRNKNSVAWYQQKAGQPPKLLIYWASTRESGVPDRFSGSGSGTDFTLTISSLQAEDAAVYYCQQRHHLPLSFGGGTKVEIK | 2.47 2.14 3.08 | 0 of 9
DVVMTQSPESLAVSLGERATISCKSSQSVSYESRNKNSVAWYQQKAGQPPKLLIYWASTRESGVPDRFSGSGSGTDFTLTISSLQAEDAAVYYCVQYHRFPLSFGGGTKVEIK | nd 4.56 nd | 3 of 9 (5.08)
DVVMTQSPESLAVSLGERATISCKSSQSVLYEFRNINSVAWYQQKAGQPPKLLIYWCSTRESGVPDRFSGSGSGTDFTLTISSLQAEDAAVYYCQQYHRLPLSFGGGTKVEIK | nd nd nd | 0 of 9
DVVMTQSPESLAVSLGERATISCKSSQSVDYESRNKNSVAWYQQKAGQPPKLLIYWASLMESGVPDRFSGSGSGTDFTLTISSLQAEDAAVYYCQQYHRLPLSFGGGTKVEIK | nd nd nd | 1 of 9 (3.25)
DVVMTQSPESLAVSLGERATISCNSSQSVLYDSRNKNSVAWYQQKAGQPPKLLIYWASTRDSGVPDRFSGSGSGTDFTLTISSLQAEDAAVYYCQQYHRLPLSFGGGTKVEIK | 1.68 1.72 1.84 | 5 of 9 (4.88)
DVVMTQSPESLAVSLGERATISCKSSQSVVYESRNKNSVAWYQQKAGQPPKLLIYWQSTRESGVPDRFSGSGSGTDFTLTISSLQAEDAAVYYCQQYHRLILSFGGGTKVEIK | 4.35 nd 4.61 | 2 of 9 (3.96)
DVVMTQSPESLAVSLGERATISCKSSQSVLYMSRNKNSVAWYQQKAGQPPKLLIYWASTRELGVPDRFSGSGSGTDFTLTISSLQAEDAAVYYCQQKHRLPLSFGGGTKVEIK | nd 3.47 6.07 | 1 of 9 (4.08)
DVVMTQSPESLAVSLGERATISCKSSQSVLYESRNKNSLAWYQQKAGQPPKLLIYSASSRESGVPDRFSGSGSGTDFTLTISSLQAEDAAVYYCQQYHRLPLSFGGGTKVEIK | 0.47 0.77 0.58 | 0 of 9

The 3 strongest on average among those seen in every replicate, once more:

VL,"replicates, log10 nM",control signals
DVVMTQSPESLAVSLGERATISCKSSQSVLYESRNKNSLAWYQQKAGQPPKLLIYSASSRESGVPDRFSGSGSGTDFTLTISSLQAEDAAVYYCQQYHRLPLSFGGGTKVEIK,0.47 0.77 0.58,0 of 9
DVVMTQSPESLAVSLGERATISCKSSMSVQYESRNKNSVAWYQQKAGQPPKLLIYWASTRESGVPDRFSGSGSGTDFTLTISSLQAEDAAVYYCQQYHRLNLSFGGGTKVEIK,0.84 0.99 0.88,0 of 9
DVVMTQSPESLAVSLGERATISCKSSQSVLYESRNKYSVAWYQQKAGQPPKLLIYWASTREWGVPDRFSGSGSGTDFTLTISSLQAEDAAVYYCQQYHRLPLGFGGGTKVEIK,0.95 0.98 1.13,6 of 9 (4.43)

For reference, the parent read 0.65 as the reference entry and 1.68 as a member of this library.

The measurements come from Engelhart et al. 2022 (doi:10.1038/s41597-022-01779-4) through the FLAb antibody collection.